Test results reported in patent US7572786B2, “Substituted 1-piperidin-3-yl-4-piperidin-4-yl-piperazine derivatives and their use as neurokinin antagonists” (Janssen Pharmaceutica, N.V., priority 2002, dated 2009).

Protein sequences, listed by entry. Tags and fused reporters are not part of them.
UniProt P25103, whole entry: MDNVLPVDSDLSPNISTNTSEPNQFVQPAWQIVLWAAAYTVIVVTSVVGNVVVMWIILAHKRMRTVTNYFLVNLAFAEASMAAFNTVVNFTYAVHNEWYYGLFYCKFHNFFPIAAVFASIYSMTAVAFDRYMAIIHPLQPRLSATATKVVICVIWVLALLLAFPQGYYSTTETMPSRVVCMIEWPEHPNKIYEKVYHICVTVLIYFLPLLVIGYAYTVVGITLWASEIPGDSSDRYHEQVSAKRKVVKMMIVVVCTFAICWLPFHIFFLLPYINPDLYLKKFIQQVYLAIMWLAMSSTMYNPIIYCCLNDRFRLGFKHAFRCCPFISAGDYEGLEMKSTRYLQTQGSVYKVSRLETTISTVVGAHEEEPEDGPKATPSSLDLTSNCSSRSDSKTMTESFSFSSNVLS
UniProt P29371, whole entry: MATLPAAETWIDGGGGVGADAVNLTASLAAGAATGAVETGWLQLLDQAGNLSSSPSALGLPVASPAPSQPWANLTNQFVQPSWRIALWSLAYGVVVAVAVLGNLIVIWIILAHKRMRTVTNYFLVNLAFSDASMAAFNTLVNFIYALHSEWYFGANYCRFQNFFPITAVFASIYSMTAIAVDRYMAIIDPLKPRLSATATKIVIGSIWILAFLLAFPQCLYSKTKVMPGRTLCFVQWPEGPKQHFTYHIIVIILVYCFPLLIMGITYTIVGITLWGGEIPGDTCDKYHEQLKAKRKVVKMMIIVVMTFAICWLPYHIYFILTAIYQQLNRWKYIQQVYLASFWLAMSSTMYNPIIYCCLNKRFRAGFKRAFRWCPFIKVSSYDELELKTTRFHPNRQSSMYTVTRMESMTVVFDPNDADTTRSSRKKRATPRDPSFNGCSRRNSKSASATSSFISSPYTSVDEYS
UniProt P21452, whole entry: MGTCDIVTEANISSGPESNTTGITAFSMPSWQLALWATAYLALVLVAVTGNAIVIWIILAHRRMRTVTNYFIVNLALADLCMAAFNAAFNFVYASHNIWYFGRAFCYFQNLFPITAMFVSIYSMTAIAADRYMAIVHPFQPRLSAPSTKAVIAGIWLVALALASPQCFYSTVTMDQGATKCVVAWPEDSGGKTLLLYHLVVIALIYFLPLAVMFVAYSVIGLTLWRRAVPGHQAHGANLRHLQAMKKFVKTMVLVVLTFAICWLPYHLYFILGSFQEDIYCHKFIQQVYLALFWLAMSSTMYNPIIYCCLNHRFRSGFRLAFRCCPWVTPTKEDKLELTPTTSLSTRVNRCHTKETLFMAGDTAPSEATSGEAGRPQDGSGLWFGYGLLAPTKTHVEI

Tests used:
Type in all cases: cell-based
[1] = molecular target: NK1 (Homo sapiens, UniProt P25103); assay: Signal transduction (ST), intracellular Ca++ (FLIPR), NK1 antagonism
[2] = molecular target: NK3 (Homo sapiens, UniProt P29371); assay: Signal transduction (ST), intracellular Ca++ (FLIPR), NK3
[3] = molecular target: NK2 (Homo sapiens, UniProt P21452); assay: Signal transduction (ST), intracellular Ca++ (FLIPR), NK2

Structure (SMILES)	pIC50 NK1 [1]	pIC50 NK3 [2]	pIC50 NK2 [3]
O=C(C1CC1)N1CCCC(N2CCN(C3CCN(C(=O)c4cc(C(F)(F)F)cc(C(F)(F)F)c4)C(Cc4ccccc4)C3)CC2)C1 (centres unmarked)	8.5	6.1	
O=C(c1cc(C(F)(F)F)cc(C(F)(F)F)c1)N1CC[C@H](N2CCN(C3CCCN(S(=O)(=O)c4ccccc4O)C3)CC2)C[C@H]1Cc1ccccc1 (some centres unmarked)	7.7	5.8	5.6
O=C(C1CC1)N1CCCC(N2CCN([C@H]3CCN(C(=O)c4cc(C(F)(F)F)cc(C(F)(F)F)c4)[C@H](Cc4ccccc4)C3)CC2)C1 (single isomer, unassigned)	8.4	6.3	5.5
O=C(c1cc(C(F)(F)F)cc(C(F)(F)F)c1)N1CCC(N2CCN(C3CCCN(S(=O)(=O)c4cccs4)C3)CC2)CC1Cc1ccccc1 (centres unmarked) [Compound 59]	8.0	7.0	6.1
